# ChEMBL document CHEMBL1926677, “Further structure-activity relationship studies on 8-substituted-3-[2-(diarylmethoxyethylidenyl)]-8-azabicyclo[3.2.1]octane derivatives at monoamine transporters” (Bioorg Med Chem, 2011)
# Amino acid sequences for entries named in this document (tags omitted).
# UniProt P23977, whole entry: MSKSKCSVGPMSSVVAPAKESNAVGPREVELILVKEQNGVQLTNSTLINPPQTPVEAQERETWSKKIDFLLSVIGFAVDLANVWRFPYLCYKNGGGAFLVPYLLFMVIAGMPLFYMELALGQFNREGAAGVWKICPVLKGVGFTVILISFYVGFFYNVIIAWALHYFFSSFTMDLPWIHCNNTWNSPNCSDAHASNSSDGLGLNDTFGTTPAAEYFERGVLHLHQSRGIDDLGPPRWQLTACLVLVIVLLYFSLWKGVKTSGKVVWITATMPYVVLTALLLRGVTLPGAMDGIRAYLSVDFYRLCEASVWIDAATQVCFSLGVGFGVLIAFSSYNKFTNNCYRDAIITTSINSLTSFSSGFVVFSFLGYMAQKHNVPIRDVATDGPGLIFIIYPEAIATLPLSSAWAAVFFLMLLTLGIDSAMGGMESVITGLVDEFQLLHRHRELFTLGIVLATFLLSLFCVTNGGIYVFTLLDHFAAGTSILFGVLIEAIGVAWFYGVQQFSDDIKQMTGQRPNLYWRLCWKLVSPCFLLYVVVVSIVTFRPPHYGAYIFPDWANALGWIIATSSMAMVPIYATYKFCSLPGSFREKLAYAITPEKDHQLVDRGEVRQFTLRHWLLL
# Legend:
# [1] = biological target: Sodium-dependent dopamine transporter (Rattus norvegicus, UniProt P23977); assay: Displacement of [3H]WIN35428 from DAT in Sprague-Dawley rat brain homogenates after 1 hr by scintillation counting; format: tissue-based
# Summary of the method: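 Male Sprague-Dawley rats (200–250 g); caudate-putamen homogenised in ice-cold modified Krebs-HEPES buffer pH 7.4, washed by repeated 20,000 × g spins; fresh membranes ~0.3% w/v (150–300 µg protein). Nonspecific: 100 µM cocaine.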
# [2] = Selectivity ratio of DAT over SERT
# [3] = organism: Rattus norvegicus; assay: Selectivity ratio of Ki for SERT in Sprague-Dawley rat brain homogenates to Ki for DAT in Sprague-Dawley rat brain homogenates; format: tissue-based
smiles,measurement,setting,value
Fc1ccc(C(OC/C=C2\C[C@H]3CC[C@@H](C2)N3Cc2ccccc2)c2ccc(F)cc2)cc1,Ki,[1],7.9 nM
same,Ratio,[2],300
same,Ratio Ki,[3],281
